Assay results taken from PubChem BioAssay AID651719 (The Scripps Research Institute Molecular Screening Center, 2012).
The list shows a part of the results, in another mix than the full data. Calls of active or inactive are those of the source.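 The calls were made as follows: active = inhibition above the screen-wide average plus 3 SD (cut at about 13% in these data); inactive = the rest.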

Sequences of proteins named here, by UniProt entry; tags and fusion partners are left off. A change or cut given only in a name is not applied to a line headed by its entry.
UniProt O60755: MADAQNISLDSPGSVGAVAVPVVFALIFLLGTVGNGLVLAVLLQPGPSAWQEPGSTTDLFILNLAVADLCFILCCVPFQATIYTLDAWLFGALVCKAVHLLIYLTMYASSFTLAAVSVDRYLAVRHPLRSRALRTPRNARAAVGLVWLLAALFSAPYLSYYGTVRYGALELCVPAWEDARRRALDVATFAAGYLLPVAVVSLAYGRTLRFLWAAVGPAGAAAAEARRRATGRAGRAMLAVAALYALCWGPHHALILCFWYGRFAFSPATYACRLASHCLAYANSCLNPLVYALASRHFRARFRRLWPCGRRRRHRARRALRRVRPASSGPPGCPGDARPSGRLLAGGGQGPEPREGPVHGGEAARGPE

These molecules were tested against Galanin receptor type 3 (Homo sapiens) (UniProt O60755) (assay: GalR3 antagonists in HEK293 cells, primary screen, cell-based, fluorescence readout (AID 651719;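 also: forskolin and galanin both at EC90 stimulate the cells; cAMP rise reported by CNG channel membrane potential dye signal; 0% = forskolin plus galanin with DMSO and 100% = forskolin alone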)). Details: HEK293 GalR3-CNG cAMP membrane potential fluorescence; at 3 µM; hits give high values; galR3 body fused to GalR1 C-terminus.

Question: How did the inhibition turn out when CCc1cc(O)c([N+](=O)[O-])c(C)c1[N+](=O)[O-] was run?
Answer: inactive: -2.97%

Question: How did the inhibition turn out when CC(C)(C)C(=O)NC(Sc1ccccc1)C(Cl)(Cl)Cl (stereo not given) was run?
Answer: inactive: -2.66%

Question: For O=P1(Nc2nc3ccc(Cl)cc3s2)COc2ccccc2O1 (stereo not given), which inhibition is on record?
Answer: inactive: -4.24%

Question: How did the inhibition turn out when CCOc1ccc(C2=NCC(CBr)S2)cc1 (stereo not given) was run?
Answer: inactive: -7.46%

Question: CC(=O)Nc1ccc([As](=O)(O)O)c(O)c1 was tested. Which inhibition did it give?
Answer: inactive: -3.18%

Question: CC(=O)Nc1ccc(Oc2c([N+](=O)[O-])cc([N+](=O)[O-])cc2[N+](=O)[O-])cc1 was tested. Which inhibition did it give?
Answer: inactive: -4.19%

Question: N#C/C(=C\c1ccc(N(CCBr)CCBr)cc1)C(N)=O was tested. Which inhibition did it give?
Answer: inactive: -4.3%

Question: With CC(=O)c1ccc(N2CC2c2ccncc2)cc1 (stereo not given) as the molecule, how does the inhibition read?
Answer: inactive: -7.45%

Question: For COC(=O)C1(C)COP(=O)(NCc2ccccc2)OC1 (stereo not given), which inhibition is on record?
Answer: inactive: 3.72%

Question: For Cc1ccccc1CN(C)C(=O)COC(=O)C(O)(c1ccccc1)c1ccccc1, which inhibition is on record?
Answer: inactive: -2.37%

Question: C[C@@H]1C=CCP(=O)(Oc2ccccc2)O1 (stereo not given in full) was tested. Which inhibition did it give?
Answer: inactive: 6.3%

Question: For C[C@H]1OP(=O)(Oc2ccccc2)C[C@@H]2O[C@@H]21 (stereo not given in full), which inhibition is on record?
Answer: inactive: -6.81%

Question: How did the inhibition turn out when O=P1(N(CCCl)CCCl)OCCC2CCCCN21 (stereo not given) was run?
Answer: inactive: -5.13%

Question: O=C(NC1CCS(=O)(=O)C1)NP(=S)(Oc1ccccc1)Oc1ccccc1 (stereo not given) was tested. Which inhibition did it give?
Answer: inactive: 4.78%

Question: For CCNC(=S)/N=C(\N)N[N+](=O)[O-], which inhibition is on record?
Answer: inactive: -6.92%

Question: How did the inhibition turn out when c1ccc(-c2nn[nH]n2)c(-c2nn[nH]n2)c1 was run?
Answer: inactive: -5.83%

Question: Which inhibition does the source give for Cc1ccc(NP(=O)(Oc2cccc(C)c2)Oc2cccc(C)c2)nc1 here?
Answer: inactive: -1.01%

Question: How did the inhibition turn out when Cc1ccccc1OP(=O)(Nc1ccccn1)Oc1ccccc1C was run?
Answer: inactive: 0.91%

Question: With CC(NC(=O)COC(=O)C(O)(c1ccccc1)c1ccccc1)c1ccccc1 (stereo not given) as the molecule, how does the inhibition read?
Answer: inactive: -6.43%

Question: For CN(C)C(=O)Oc1noc2ccccc12, which inhibition is on record?
Answer: inactive: -5.06%

Question: O=c1c2cc([N+](=O)[O-])ccc2[nH]c2c([N+](=O)[O-])cc([N+](=O)[O-])cc12 was tested. Which inhibition did it give?
Answer: inactive: -8.16%

Question: Which inhibition does the source give for COC(=O)c1cc2c(s1)N=C(c1ccccc1)N(C)P2(=O)N1CCOCC1 (stereo not given) here?
Answer: inactive: 1.68%

Question: With Cc1ccc(OP(=O)(Nc2ccccn2)Oc2ccc(C)cc2)cc1 as the molecule, how does the inhibition read?
Answer: inactive: -2.75%

Question: For CC(=O)NC(SC(=S)N(CC(C)C)CC(C)C)C(Cl)(Cl)Cl (stereo not given), which inhibition is on record?
Answer: inactive: -1.91%

Question: How did the inhibition turn out when O=C(OC1CN2CCC1CC2)c1ccccc1 (stereo not given) was run?
Answer: inactive: -10.5%

Question: For CCC(=O)N1C2C3N(C(=O)CC)C1C1N(C(=O)CC)C(C(N1C(=O)CC)N3C(=O)CC)N2C(=O)CC, which inhibition is on record?
Answer: inactive: -1.54%

Question: How did the inhibition turn out when CCOP(=O)(Nc1ccccc1)OCC was run?
Answer: inactive: -5.94%

Question: Which inhibition does the source give for Cc1cc(SC(NC(=O)c2ccc(F)cc2)C(Cl)(Cl)Cl)ncn1 (stereo not given) here?
Answer: inactive: -4.27%

Question: For CN(C(=O)Cc1ccc(Cl)c(Cl)c1)[C@H]1CCCC[C@@H]1N1CCCC1, which inhibition is on record?
Answer: inactive: -6.08%

Question: How did the inhibition turn out when Cc1ccc(NP(=O)(Oc2ccccc2F)Oc2ccccc2F)nc1 was run?
Answer: inactive: -4.9%

Question: How did the inhibition turn out when CCn1c(=O)n(C2CCN(CC3CCCCCCC3)C[C@H]2CO)c2ccccc21 (stereo not given in full) was run?
Answer: inactive: -5.69%

Question: O=C(O)c1ccccc1[As](=O)(O)O was tested. Which inhibition did it give?
Answer: inactive: -6.87%

Question: For CC(=O)Nc1ccc([As](=O)(O)O)cc1, which inhibition is on record?
Answer: inactive: -6.6%

Question: How did the inhibition turn out when CCCC1OP(N)(=O)OCC1CC (stereo not given) was run?
Answer: inactive: -7.11%

Question: Which inhibition does the source give for CN(C)P(=O)(N(C)C)n1c(Nc2ccccc2)nnc1-c1ccccc1 here?
Answer: inactive: -4.63%

Question: How did the inhibition turn out when O=P(Nc1nc2ccc(Cl)cc2s1)(c1ccccc1)c1ccccc1 was run?
Answer: inactive: -5.96%

Question: How did the inhibition turn out when CN(C(=O)Cc1ccccc1)C1CC[C@@]2(CCCO2)C[C@@H]1N1CCCC1 (stereo not given in full) was run?
Answer: inactive: -2.46%

Question: Which inhibition does the source give for CCN(N=Nc1nonc1N)c1nonc1N here?
Answer: inactive: -3.21%

Question: Nc1cccc2ccc([As](=O)(O)O)cc12 was tested. Which inhibition did it give?
Answer: inactive: -11.5%

Question: Which inhibition does the source give for COc1ccccc1OP(=O)(Nc1ccc(C)cn1)Oc1ccccc1OC here?
Answer: inactive: -0.4%

Question: With Cc1ccc(OP(=O)(Nc2nccs2)Oc2ccc(C)cc2)cc1 as the molecule, how does the inhibition read?
Answer: inactive: -4.29%

Question: Which inhibition does the source give for Clc1ccc(Cl)c(NC2=NCC(CBr)S2)c1 (stereo not given) here?
Answer: inactive: -2.01%

Question: With CN1CCCC(OC(=O)C(c2ccccc2)c2ccccc2)C1 (stereo not given) as the molecule, how does the inhibition read?
Answer: inactive: -5.82%

Question: For NC(=O)c1cc([N+](=O)[O-])cc([N+](=O)[O-])c1N, which inhibition is on record?
Answer: inactive: -3.53%

Question: For Cc1ccc(N/C(=N/P(=O)(N2CCOCC2)N2CCOCC2)N2CCOCC2)cc1, which inhibition is on record?
Answer: inactive: -3.51%

Question: How did the inhibition turn out when CC(C)CC(=O)NC(Sc1ccc(Cl)cc1)C(Cl)(Cl)Cl (stereo not given) was run?
Answer: inactive: -2.77%

Question: Nc1cc(N)c2nonc2c1[N+](=O)[O-] was tested. Which inhibition did it give?
Answer: inactive: -4.91%

Question: Which inhibition does the source give for Oc1ccccc1CNc1ccccn1 here?
Answer: inactive: -3.97%

Question: How did the inhibition turn out when O=C(NC(Sc1ccncn1)C(Cl)(Cl)Cl)c1ccccc1 (stereo not given) was run?
Answer: inactive: 1.62%

Question: For CC(=O)N1C2C3N(C(C)=O)C1C1N(C(C)=O)C(C(N1C(C)=O)N3C(C)=O)N2C(C)=O, which inhibition is on record?
Answer: inactive: -1.98%

Question: How did the inhibition turn out when O=[N+]([O-])c1cccc2n[nH]nc12 was run?
Answer: inactive: 3.5%

Question: How did the inhibition turn out when Cc1ccc(NP(=O)(Oc2ccccc2)Oc2ccccc2)nc1 was run?
Answer: active: 15.6%

Question: How did the inhibition turn out when O=[N+]([O-])c1cc([N+](=O)[O-])c(CCNc2ccccc2)c([N+](=O)[O-])c1 was run?
Answer: inactive: 0.51%

Question: With CCc1nc2c(n1)c1c(non1O)c1c2no[n+]1[O-] as the molecule, how does the inhibition read?
Answer: active: 38.9%

Question: COc1ccc(C2=NCC(CBr)S2)cc1 (stereo not given) was tested. Which inhibition did it give?
Answer: inactive: -2.03%

Question: Which inhibition does the source give for CC(C)=N/N=C(\N)N[N+](=O)[O-] here?
Answer: inactive: 3.42%

Question: Which inhibition does the source give for CC(C)c1nc(Nc2ccccc2)n(P(=O)(N(C)C)N(C)C)n1 here?
Answer: inactive: -7.09%

Question: How did the inhibition turn out when CN(C)C(=O)OCCc1n(C)cc[n+]1C was run?
Answer: inactive: -9.82%

Question: How did the inhibition turn out when c1cc(-c2nn[nH]n2)ccc1-c1nn[nH]n1 was run?
Answer: inactive: 5.4%

Question: Which inhibition does the source give for CC1CCN(C(=O)Oc2c(Cl)cc(Cl)c3cccnc23)CC1 here?
Answer: inactive: -3.6%

Question: Which inhibition does the source give for Nc1ccc([As](=O)(O)c2ccc(N)cc2)cc1 here?
Answer: inactive: -6.36%

Question: Which inhibition does the source give for C[N+]1=C2C=CC=CC=C2SC12C([N+](=O)[O-])=CC([N+](=O)[O-])=C[C-]2[N+](=O)[O-] (stereo not given) here?
Answer: inactive: -1.81%

Question: With CCN(/C(=N/P(=O)(N1CCOCC1)N1CCOCC1)N1CCOCC1)c1ccc(OC)cc1 as the molecule, how does the inhibition read?
Answer: inactive: 1.64%

Question: Which inhibition does the source give for O=C(Nc1cc([As](=O)(O)O)ccc1O)c1ccccc1 here?
Answer: inactive: -6.93%

Question: O=P1(N(CCCl)CCCl)OCCCS1 (stereo not given) was tested. Which inhibition did it give?
Answer: inactive: -7.19%

Question: Which inhibition does the source give for O=[N+]([O-])c1cccc(NC2=NCC(CBr)S2)c1 (stereo not given) here?
Answer: inactive: 1.95%

Question: How did the inhibition turn out when COC(=O)C1(C)COP(=O)(Nc2ccccc2)OC1 (stereo not given) was run?
Answer: inactive: 1.08%

Question: O=C(O)CNc1ccc([As](=O)(O)O)cc1 was tested. Which inhibition did it give?
Answer: inactive: -6.84%

Question: How did the inhibition turn out when CC(C)(C)C(=O)NC(Sc1ccncn1)C(Cl)(Cl)Cl (stereo not given) was run?
Answer: inactive: -4.56%

Question: With O=[N+]([O-])c1ncn(CCn2ncnc2[N+](=O)[O-])n1 as the molecule, how does the inhibition read?
Answer: inactive: -3.69%
